This test relates to MCF-7 (breast cancer) cell line. The settings on record: for IC50: read-out: IC50 MCF-7, MTT, 48 h drug treatment, MCF-7.

The structures appear in SMILES notation.

Take `Cc1nc2ccccc2c(=O)n1[C@H]1CC[C@H](n2c(C)nc3ccccc3c2=O)CC1` [Compound 3a, 3,3′-((1R,4R)-Cyclohexane-1,4-diyl)bis(2-methylquinazolin-4(3H)-one)]: the IC50 worked out at 9.78 µM.
In the case of `Cc1ccc2nc(C)n([C@H]3CC[C@H](n4c(C)nc5ccc(C)cc5c4=O)CC3)c(=O)c2c1` [Compound 3b, 3,3′-((1R,4R)-Cyclohexane-1,4-diyl)bis(2,6-dimethylquinazolin-4(3H)-one)], the IC50 stood at 12.7 µM.
Turning to `Cc1nc2ccc(Cl)cc2c(=O)n1[C@H]1CC[C@H](n2c(C)nc3ccc(Cl)cc3c2=O)CC1` [Compound 3c, 3,3′-((1R,4R)-Cyclohexane-1,4-diyl)bis(6-chloro-2-methylquinazolin-4(3H)-one)], the IC50 was 9.05 µM.
Same read-out and setting: in the case of `Cc1nc2ccc(F)cc2c(=O)n1[C@H]1CC[C@H](n2c(C)nc3ccc(F)cc3c2=O)CC1` [Compound 3d, 3,3'-((1R,4R)-Cyclohexane-1,4-diyl)bis(6-fluoro-2-methylquinazolin-4(3H)-one)] it was 7.11 µM.
On the same count and under the same terms, in the case of `Cc1nc2ccc([N+](=O)[O-])cc2c(=O)n1[C@H]1CC[C@H](n2c(C)nc3ccc([N+](=O)[O-])cc3c2=O)CC1` [Compound 3e, 3,3′-((1R,4R)-Cyclohexane-1,4-diyl)bis(2-methyl-6-nitroquinazolin-4(3H)-one)] it was 4.55 µM; in that of `Cc1nc2ccccc2c(=O)n1Cc1ccc(Cn2c(C)nc3ccccc3c2=O)cc1` [Compound 4a, 3,3′-(1,4-Phenylenebis(methylene))bis(2-methylquinazolin-4(3H)-one)], 5.38 µM; in that of `Cc1ccc2nc(C)n(Cc3ccc(Cn4c(C)nc5ccc(C)cc5c4=O)cc3)c(=O)c2c1` [Compound 4b, 3,3′-(1,4-Phenylenebis(methylene))bis(2,6-dimethylquinazolin-4(3H)-one)], 6.73 µM.
The same measure, in the same setting: with `Cc1nc2ccc(Cl)cc2c(=O)n1Cc1ccc(Cn2c(C)nc3ccc(Cl)cc3c2=O)cc1` [Compound 4c, 3,3′-(1,4-Phenylenebis(methylene))bis(6-chloro-2-methylquinazolin-4(3H)-one)] the figure was 4.65 µM; with `Cc1nc2ccc(F)cc2c(=O)n1Cc1ccc(Cn2c(C)nc3ccc(F)cc3c2=O)cc1` [Compound 4d, 3,3′-(1,4-Phenylenebis(methylene))bis(6-fluoro-2-methylquinazolin-4(3H)-one)], 6.19 µM; with `Cc1nc2ccc([N+](=O)[O-])cc2c(=O)n1Cc1ccc(Cn2c(C)nc3ccc([N+](=O)[O-])cc3c2=O)cc1` [Compound 4e, 3,3′-(1,4-Phenylenebis(methylene))bis(2-methyl-6-nitroquinazolin-4(3H)-one)], 2.75 µM.
Take `Cc1nc2ccccc2c(=O)n1CCn1c(C)nc2ccccc2c1=O` [Compound 5a, 3,3′-(Ethane-1,2-diyl)bis(2-methylquinazolin-4(3H)-one)]: the half-maximal inhibitory concentration (IC50) came to 9.79 µM.
On the same count and under the same terms, in the case of `Cc1ccc2nc(C)n(CCn3c(C)nc4ccc(C)cc4c3=O)c(=O)c2c1` [Compound 5b, 3,3′-(Ethane-1,2-diyl)bis(2,6-dimethylquinazolin-4(3H)-one)] it was 13.6 µM.
Still for that read-out and setting: in the case of `Cc1nc2ccc(Cl)cc2c(=O)n1CCn1c(C)nc2ccc(Cl)cc2c1=O` [Compound 5c, 3,3′-(Ethane-1,2-diyl)bis(6-chloro-2-methylquinazolin-4(3H)-one)] it was 6.12 µM.
As for `Cc1nc2ccc(F)cc2c(=O)n1CCn1c(C)nc2ccc(F)cc2c1=O` [Compound 5d, 3,3′-(Ethane-1,2-diyl)bis(6-fluoro-2-methylquinazolin-4(3H)-one)], the IC50 was determined as 5.39 µM.
For the molecule `Cc1nc2ccc([N+](=O)[O-])cc2c(=O)n1CCn1c(C)nc2ccc([N+](=O)[O-])cc2c1=O` [Compound 5e, 3,3′-(Ethane-1,2-diyl)bis(2-methyl-6-nitroquinazolin-4(3H)-one)], the IC50 worked out at 5.21 µM.
On the same count and under the same terms, with `Cc1nc2ccccc2c(=O)n1-c1ccc(-n2c(C)nc3ccccc3c2=O)cc1` [Compound 6a, 3,3′-(1,4-Phenylene)bis(2-methylquinazolin-4(3H)-one)] the figure was 6.98 µM; with `Cc1ccc2nc(C)n(-c3ccc(-n4c(C)nc5ccc(C)cc5c4=O)cc3)c(=O)c2c1` [Compound 6b, 3,3′-(1,4-Phenylene)bis(2,6-dimethylquinazolin-4(3H)-one)], 7.48 µM.
Still for that read-out and setting: in the case of `Cc1nc2ccc(Cl)cc2c(=O)n1-c1ccc(-n2c(C)nc3ccc(Cl)cc3c2=O)cc1` [Compound 6c, 3,3′-(1,4-Phenylene)bis(6-chloro-2-methylquinazolin-4(3H)-one)] it was 5.53 µM; in that of `Cc1nc2ccc(F)cc2c(=O)n1-c1ccc(-n2c(C)nc3ccc(F)cc3c2=O)cc1` [Compound 6d, 3,3′-(1,4-Phenylene)bis(6-fluoro-2-methylquinazolin-4(3H)-one)], 5.7 µM; in that of `Cc1nc2ccc([N+](=O)[O-])cc2c(=O)n1-c1ccc(-n2c(C)nc3ccc([N+](=O)[O-])cc3c2=O)cc1` [Compound 6e, 3,3′-(1,4-Phenylene)bis(2-methyl-6-nitroquinazolin-4(3H)-one)], 2.73 µM.
`Cc1nc2ccccc2c(=O)n1-c1ccc(S(=O)(=O)c2ccc(-n3c(C)nc4ccccc4c3=O)cc2)cc1` [Compound 7a, 3,3′-(Sulfonylbis(4,1-phenylene))bis(2-methylquinazolin-4(3H)-one)]: the IC50 amounted to 4.24 µM.
Turning to `Cc1ccc2nc(C)n(-c3ccc(S(=O)(=O)c4ccc(-n5c(C)nc6ccc(C)cc6c5=O)cc4)cc3)c(=O)c2c1` [Compound 7b, 3,3′-(Sulfonylbis(4,1-phenylene))bis(2,6-dimethylquinazolin-4(3H)-one)], the IC50 turned out to be 5.78 µM.
Regarding `Cc1nc2ccc(Cl)cc2c(=O)n1-c1ccc(S(=O)(=O)c2ccc(-n3c(C)nc4ccc(Cl)cc4c3=O)cc2)cc1` [Compound 7c, 3,3′-(Sulfonylbis(4,1-phenylene))bis(6-chloro-2-methylquinazolin-4(3H)-one)], the IC50 was 3.91 µM.
As to `Cc1nc2ccc(F)cc2c(=O)n1-c1ccc(S(=O)(=O)c2ccc(-n3c(C)nc4ccc(F)cc4c3=O)cc2)cc1` [Compound 7d, 3,3′-(Sulfonylbis(4,1-phenylene))bis(6-fluoro-2-methylquinazolin-4(3H)-one)], the IC50 was found to be 1.46 µM.
As for `Cc1nc2ccc([N+](=O)[O-])cc2c(=O)n1-c1ccc(S(=O)(=O)c2ccc(-n3c(C)nc4ccc([N+](=O)[O-])cc4c3=O)cc2)cc1` [Compound 7e, 3,3′-(Sulfonylbis(4,1-phenylene))bis(2-methyl-6-nitroquinazolin-4(3H)-one)], the IC50 stood at 1.26 µM. For the setting “from IC50 values”, the “potency against MCF-7 relative to sorafenib” value is listed as “approximately thrice as potent as sorafenib”.
For the molecule `Cc1nc2ccccc2c(=O)n1-c1cccc(-n2c(C)nc3ccccc3c2=O)c1` [Compound 11, 3,3′-(1,3-Phenylene)bis(2-methylquinazolin-4(3H)-one)], the IC50 was determined as 5.42 µM.
Regarding `CNC(=O)c1cc(Oc2ccc(NC(=O)Nc3ccc(Cl)c(C(F)(F)F)c3)cc2)ccn1` [Sorafenib, sorafenib, reference compound], the IC50 worked out at 4.03 µM.
